{"source": "patent US20060094649A1", "about": "“Hla-a1,-a2,-a3,-a24,-b7, and-b44 tumor associated antigen peptides and compositions” (priority 2002, published 2006)"}
{"test_system": "HLA-A3 supertype molecules", "assay": "HLA-A3 supertype cross-binding (A*0301, A*1101, A*3101, A*3301, A*6801)", "conditions": "Table 16a, CEA-derived"}
{"smiles": "CC(C)C[C@H](NC(=O)[C@@H](N)Cc1c[nH]cn1)C(=O)N[C@@H](Cc1ccccc1)C(=O)NCC(=O)N[C@@H](Cc1ccc(O)cc1)C(=O)N[C@@H](CO)C(=O)N[C@@H](Cc1c[nH]c2ccccc12)C(=O)N[C@@H](Cc1ccc(O)cc1)C(=O)N[C@@H](CCCCN)C(=O)O", "note": "[compound 42]", "Number of A3 alleles crossbound": 5}
{"smiles": "CC[C@H](C)[C@H](NC(=O)[C@@H](N)[C@@H](C)O)C(=O)N[C@@H](CO)C(=O)N1CCC[C@H]1C(=O)N[C@@H](CC(C)C)C(=O)N[C@@H](CC(N)=O)C(=O)N[C@H](C(=O)N[C@@H](CO)C(=O)N[C@@H](Cc1ccc(O)cc1)C(=O)N[C@@H](CCCNC(=N)N)C(=O)O)[C@@H](C)O", "note": "[compound 43]", "Number of A3 alleles crossbound": 3}
{"smiles": "CC[C@H](C)[C@H](NC(=O)[C@@H](N)[C@@H](C)O)C(=O)N[C@@H](CO)C(=O)N1CCC[C@H]1C(=O)N[C@@H](CC(C)C)C(=O)N[C@@H](CC(N)=O)C(=O)N[C@H](C(=O)N[C@@H](CO)C(=O)N[C@@H](Cc1ccc(O)cc1)C(=O)N[C@@H](CCCCN)C(=O)O)[C@@H](C)O", "note": "[compound 44]", "Number of A3 alleles crossbound": 3}
{"smiles": "CC(C)C[C@H](NC(=O)[C@@H]1CCCN1C(=O)[C@H](CO)NC(=O)[C@@H](NC(=O)[C@@H](N)[C@@H](C)O)C(C)C)C(=O)N[C@@H](CC(N)=O)C(=O)N[C@H](C(=O)N[C@@H](CO)C(=O)N[C@@H](Cc1ccc(O)cc1)C(=O)N[C@@H](CCCNC(=N)N)C(=O)O)[C@@H](C)O", "note": "[compound 45]", "Number of A3 alleles crossbound": 4}
{"smiles": "CC(C)C[C@H](NC(=O)[C@H](CC(C)C)NC(=O)[C@@H](NC(=O)[C@H](CC(C)C)NC(=O)[C@@H](NC(=O)[C@@H](N)CCCNC(=N)N)[C@@H](C)O)[C@@H](C)O)C(=O)N[C@@H](CO)C(=O)N[C@H](C(=O)N[C@H](C(=O)N[C@@H](CCCNC(=N)N)C(=O)O)[C@@H](C)O)C(C)C", "note": "[compound 46]", "Number of A3 alleles crossbound": 3}
{"smiles": "CC(C)C[C@H](NC(=O)[C@H](CC(C)C)NC(=O)[C@@H](NC(=O)[C@H](CC(C)C)NC(=O)[C@@H](NC(=O)[C@@H](N)CCCNC(=N)N)C(C)C)[C@@H](C)O)C(=O)N[C@@H](CO)C(=O)N[C@H](C(=O)N[C@H](C(=O)N[C@@H](CCCNC(=N)N)C(=O)O)[C@@H](C)O)C(C)C", "note": "[compound 47]", "Number of A3 alleles crossbound": 3}
{"smiles": "CC[C@H](C)[C@H](NC(=O)[C@@H](NC(=O)[C@@H]1CCCN1)[C@@H](C)O)C(=O)N[C@@H](CO)C(=O)N1CCC[C@H]1C(=O)N[C@@H](CO)C(=O)N[C@@H](Cc1ccc(O)cc1)C(=O)N[C@H](C(=O)N[C@@H](Cc1ccc(O)cc1)C(=O)N[C@@H](Cc1ccc(O)cc1)C(=O)N[C@@H](CCCNC(=N)N)C(=O)O)[C@@H](C)O", "note": "[compound 48]", "Number of A3 alleles crossbound": 3}
{"smiles": "CC[C@H](C)[C@H](NC(=O)[C@@H](N)[C@@H](C)O)C(=O)N[C@@H](CO)C(=O)N1CCC[C@H]1C(=O)N[C@@H](CO)C(=O)N[C@@H](Cc1ccc(O)cc1)C(=O)N[C@H](C(=O)N[C@@H](Cc1ccc(O)cc1)C(=O)N[C@@H](Cc1ccc(O)cc1)C(=O)N[C@@H](CCCNC(=N)N)C(=O)O)[C@@H](C)O", "note": "[compound 49]", "Number of A3 alleles crossbound": 4}
{"smiles": "CC[C@H](C)[C@H](N)C(=O)N[C@@H](CO)C(=O)N1CCC[C@H]1C(=O)N[C@@H](CO)C(=O)N[C@@H](Cc1ccc(O)cc1)C(=O)N[C@H](C(=O)N[C@@H](Cc1ccc(O)cc1)C(=O)N[C@@H](Cc1ccc(O)cc1)C(=O)N[C@@H](CCCNC(=N)N)C(=O)O)[C@@H](C)O", "note": "[compound 50]", "Number of A3 alleles crossbound": 3}
{"smiles": "CC[C@H](C)[C@H](N)C(=O)N[C@H](C(=O)N1CCC[C@H]1C(=O)N[C@@H](CO)C(=O)N[C@@H](Cc1ccc(O)cc1)C(=O)N[C@H](C(=O)N[C@@H](Cc1ccc(O)cc1)C(=O)N[C@@H](Cc1ccc(O)cc1)C(=O)N[C@@H](CCCNC(=N)N)C(=O)O)[C@@H](C)O)C(C)C", "note": "[compound 51]", "Number of A3 alleles crossbound": 5}
{"smiles": "CC(C)C[C@H](NC(=O)[C@@H](NC(=O)[C@H](CC(C)C)NC(=O)[C@@H](NC(=O)[C@@H](N)CCCNC(=N)N)[C@@H](C)O)[C@@H](C)O)C(=O)N[C@@H](Cc1ccccc1)C(=O)N[C@@H](CC(N)=O)C(=O)N[C@H](C(=O)N[C@H](C(=O)N[C@@H](CCCNC(=N)N)C(=O)O)[C@@H](C)O)C(C)C", "note": "[compound 52]", "Number of A3 alleles crossbound": 4}
{"test_system": "HLA-A3 supertype molecules", "assay": "HLA-A3 supertype cross-binding (A*0301, A*1101, A*3101, A*3301, A*6801)", "conditions": "Table 20; binding affinity threshold of 200 nM or less"}
{"smiles": "CC(C)C[C@H](NC(=O)[C@@H](N)Cc1c[nH]cn1)C(=O)N[C@@H](Cc1ccccc1)C(=O)NCC(=O)N[C@@H](Cc1ccc(O)cc1)C(=O)N[C@@H](CO)C(=O)N[C@@H](Cc1c[nH]c2ccccc12)C(=O)N[C@@H](Cc1ccc(O)cc1)C(=O)N[C@@H](CCCCN)C(=O)O", "No. A3 supertype alleles crossbound (200)": 5}
{"smiles": "CC[C@H](C)[C@H](N)C(=O)N[C@H](C(=O)N[C@@H](Cc1ccc(O)cc1)C(=O)N1CCC[C@H]1C(=O)N1CCC[C@H]1C(=O)N[C@@H](CC(C)C)C(=O)N[C@@H](Cc1c[nH]cn1)C(=O)N[C@@H](CCC(=O)O)C(=O)N[C@@H](CCCNC(=N)N)C(=O)O)C(C)C", "No. A3 supertype alleles crossbound (200)": 4}
{"smiles": "CSCC[C@H](NC(=O)[C@@H](N)CO)C(=O)N[C@@H](CC(C)C)C(=O)N[C@@H](CCC(=O)O)C(=O)N[C@H](C(=O)N[C@@H](Cc1ccccc1)C(=O)N[C@@H](CCC(=O)O)C(=O)NCC(=O)N[C@@H](CCCCN)C(=O)O)C(C)C", "No. A3 supertype alleles crossbound (200)": 3}
{"smiles": "CC[C@H](C)[C@H](NC(=O)[C@@H](NC(=O)[C@@H](NC(=O)[C@H](CO)NC(=O)[C@H](Cc1ccccc1)NC(=O)[C@H](CO)NC(=O)[C@@H](N)CO)[C@@H](C)O)[C@@H](C)O)C(=O)N[C@@H](CC(N)=O)C(=O)N[C@@H](CCCCN)C(=O)O", "No. A3 supertype alleles crossbound (200)": 3}
{"smiles": "CC(C)[C@H](NC(=O)[C@@H](N)CO)C(=O)N[C@@H](Cc1ccccc1)C(=O)N[C@@H](C)C(=O)N[C@@H](Cc1c[nH]cn1)C(=O)N1CCC[C@H]1C(=O)N[C@@H](CCCNC(=N)N)C(=O)N[C@@H](CCCCN)C(=O)O", "No. A3 supertype alleles crossbound (200)": 3}
{"smiles": "CC(C)C[C@H](NC(=O)[C@@H](NC(=O)[C@@H](N)CO)C(C)C)C(=O)N[C@@H](CCC(=O)O)C(=O)N[C@H](C(=O)N[C@@H](Cc1ccccc1)C(=O)N[C@@H](CCC(=O)O)C(=O)NCC(=O)N[C@@H](CCCCN)C(=O)O)C(C)C", "No. A3 supertype alleles crossbound (200)": 4}
{"smiles": "CC[C@H](NC(=O)[C@@H](NC(=O)[C@@H](N)CO)C(C)C)C(=O)N[C@@H](CCSC)C(=O)NCC(=O)NCC(=O)N[C@@H](CCSC)C(=O)N[C@@H](CC(N)=O)C(=O)N[C@@H](CCCNC(=N)N)C(=O)O", "note": "[SVBMGGMNR]", "No. A3 supertype alleles crossbound (200)": 4}
{"test_system": "HLA-A3 supertype molecules", "assay": "HLA-A3 supertype cross-binding (A*0301, A*1101, A*3101, A*3301, A*6801)", "conditions": "besides A*1101"}
{"smiles": "CC[C@H](C)[C@H](NC(=O)[C@H](Cc1ccccc1)NC(=O)[C@H](CC(C)C)NC(=O)[C@@H](NC(=O)[C@H](CCC(N)=O)NC(=O)[C@@H](NC(=O)[C@@H](N)Cc1c[nH]cn1)[C@@H](C)O)C(C)C)C(=O)N[C@@H](C)C(=O)N[C@@H](CCCCN)C(=O)O", "note": "[CEA.636]", "number of additional A3 supertype alleles bound": "three"}
{"test_system": "HLA-A3 supertype molecules", "assay": "HLA-A3 supertype cross-binding (A*0301, A*1101, A*3101, A*3301, A*6801)", "conditions": "of 5 alleles; affinity ≦500 nM"}
{"smiles": "CC(C)C[C@H](NC(=O)[C@@H](N)CC(C)C)C(=O)N[C@@H](CC(=O)O)C(=O)N[C@@H](Cc1c[nH]cn1)C(=O)N[C@H](C(=O)N[C@@H](CCCNC(=N)N)C(=O)N[C@@H](CCC(=O)O)C(=O)N[C@@H](CC(N)=O)C(=O)N[C@@H](CCCNC(=N)N)C(=O)O)C(C)C", "note": "[HER2/neu.806]", "number of A3 supertype alleles bound": 2}
{"smiles": "CC(C)C[C@H](NC(=O)[C@@H](NC(=O)[C@H](CC(N)=O)NC(=O)[C@H](CCCNC(=N)N)NC(=O)[C@H](C)NC(=O)[C@H](C)NC(=O)[C@@H](N)CC(C)C)C(C)C)C(=O)N[C@H](C(=O)N[C@@H](CCCCN)C(=O)O)C(C)C", "note": "[HER2/neu.846]", "number of A3 supertype alleles bound": 2}
